Source: patent US20220202859A1, “CANCER TREATMENT USING CD38 INHIBITOR AND/OR LENALIDOMIDE AND T-CELLS EXPRESSING A CHIMERIC ANTIGEN RECEPTOR” (CRISPR THERAPEUTICS AG, priority 2020, published 2022)

Tested on: MM.1S tumors
Assay: Lenalidomide plus anti-BCMA CAR-T cells in MM.1S subcutaneous tumor model
Details: 2 & 3 weeks after CAR-T dosing

`Nc1cccc2c1CN(C1CCC(=O)NC1=O)C2=O` (stereo not shown) [Lenalidomide] was tested, and the “numbers of CAR-T cells in mouse blood” value was “significantly increase the numbers of the CAR-T cells in mouse blood in a dose dependent manner”.
